The numbers were not newly measured in patent publication US20080138790A1 (priority 2004, published 2008), which cites them from elsewhere.

For this data set, the system named is rat. Particulars: in vivo; cited from earlier work.

For 1-Butanol, the “LD50 (oral-rat)” value is 790 mg/kg.
